Source: publication PMC8523698, “Preclinical characterization of an intravenous coronavirus 3CL protease inhibitor for the potential treatment of COVID19” (Nature Communications, 2021)

Assays:
OAT3 = molecular target: T1, OAT3 (Homo sapiens, UniProt Q8TCC7); assay: Transporter inhibition using transfected HEK293 cells; details: uptake of [3H]-ES by OAT3
T1 sequence (Q8TCC7 1-542): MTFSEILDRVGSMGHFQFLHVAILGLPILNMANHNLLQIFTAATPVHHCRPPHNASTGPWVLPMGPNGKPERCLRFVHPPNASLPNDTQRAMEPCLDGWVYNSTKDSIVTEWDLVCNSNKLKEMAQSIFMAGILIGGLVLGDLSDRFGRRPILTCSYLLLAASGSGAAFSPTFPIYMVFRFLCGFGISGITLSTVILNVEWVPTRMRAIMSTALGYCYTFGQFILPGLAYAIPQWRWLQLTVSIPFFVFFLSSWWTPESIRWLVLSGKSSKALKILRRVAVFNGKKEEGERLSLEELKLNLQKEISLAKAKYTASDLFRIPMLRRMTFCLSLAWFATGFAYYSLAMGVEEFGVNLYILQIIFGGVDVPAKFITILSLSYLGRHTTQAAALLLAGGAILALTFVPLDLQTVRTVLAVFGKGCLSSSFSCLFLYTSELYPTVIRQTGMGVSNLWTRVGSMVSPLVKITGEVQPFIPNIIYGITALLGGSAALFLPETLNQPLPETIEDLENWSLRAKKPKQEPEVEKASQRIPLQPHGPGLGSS

OCT1 = molecular target: T2, OCT1 (Homo sapiens, UniProt O15245); assay: as above; assay type: in vitro ADME; details: uptake of [14C]-metformin by OCT1, single replicates
T2 construct: expressed in transfected cells; host or cells: HEK293
T2 sequence (O15245 1-554): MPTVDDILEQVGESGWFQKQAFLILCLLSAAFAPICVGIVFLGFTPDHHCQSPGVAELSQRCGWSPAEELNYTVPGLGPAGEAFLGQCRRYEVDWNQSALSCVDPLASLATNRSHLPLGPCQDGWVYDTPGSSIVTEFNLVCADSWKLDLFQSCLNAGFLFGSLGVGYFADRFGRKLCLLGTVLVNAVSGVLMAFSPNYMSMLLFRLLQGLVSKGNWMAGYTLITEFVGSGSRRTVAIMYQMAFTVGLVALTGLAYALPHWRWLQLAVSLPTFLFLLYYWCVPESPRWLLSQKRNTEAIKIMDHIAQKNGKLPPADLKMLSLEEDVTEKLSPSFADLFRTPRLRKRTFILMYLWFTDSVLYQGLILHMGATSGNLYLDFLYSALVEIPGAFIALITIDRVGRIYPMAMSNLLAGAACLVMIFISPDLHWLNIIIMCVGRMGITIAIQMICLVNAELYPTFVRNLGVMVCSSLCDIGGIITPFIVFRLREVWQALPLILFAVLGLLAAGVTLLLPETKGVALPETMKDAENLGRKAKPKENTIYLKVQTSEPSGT

BCRP = molecular target: T3, BCRP (Homo sapiens, UniProt Q9UNQ0); assay: Transporter inhibition using membrane vesicles; details: uptake of rosuvastatin by BCRP, single replicates
T3 sequence (Q9UNQ0 1-655): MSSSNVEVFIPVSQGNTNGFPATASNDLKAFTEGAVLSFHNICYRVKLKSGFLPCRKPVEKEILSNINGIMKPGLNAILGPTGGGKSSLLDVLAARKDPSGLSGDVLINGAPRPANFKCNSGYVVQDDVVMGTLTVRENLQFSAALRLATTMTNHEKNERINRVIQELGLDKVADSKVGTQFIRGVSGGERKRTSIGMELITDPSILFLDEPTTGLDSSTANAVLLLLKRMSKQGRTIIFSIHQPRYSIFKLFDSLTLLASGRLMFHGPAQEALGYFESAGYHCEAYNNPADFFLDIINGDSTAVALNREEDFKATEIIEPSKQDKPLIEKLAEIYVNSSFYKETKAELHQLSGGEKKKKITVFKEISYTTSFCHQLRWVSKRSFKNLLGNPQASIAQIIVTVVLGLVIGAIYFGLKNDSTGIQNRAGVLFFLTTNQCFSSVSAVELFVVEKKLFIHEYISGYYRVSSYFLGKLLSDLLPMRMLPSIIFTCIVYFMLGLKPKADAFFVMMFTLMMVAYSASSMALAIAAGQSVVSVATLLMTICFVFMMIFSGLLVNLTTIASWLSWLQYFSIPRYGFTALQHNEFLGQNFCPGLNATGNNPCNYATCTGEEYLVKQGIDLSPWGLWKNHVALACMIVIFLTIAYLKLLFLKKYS

OATP1B1 = molecular target: T4, OATP1B1 (Homo sapiens, UniProt Q9Y6L6); assay: Transporter inhibition using transfected HEK293 cells; details: uptake of Rosuvastatin by OATP1B1; inhibitor 300.0000 uM
T4 sequence (Q9Y6L6 1-691): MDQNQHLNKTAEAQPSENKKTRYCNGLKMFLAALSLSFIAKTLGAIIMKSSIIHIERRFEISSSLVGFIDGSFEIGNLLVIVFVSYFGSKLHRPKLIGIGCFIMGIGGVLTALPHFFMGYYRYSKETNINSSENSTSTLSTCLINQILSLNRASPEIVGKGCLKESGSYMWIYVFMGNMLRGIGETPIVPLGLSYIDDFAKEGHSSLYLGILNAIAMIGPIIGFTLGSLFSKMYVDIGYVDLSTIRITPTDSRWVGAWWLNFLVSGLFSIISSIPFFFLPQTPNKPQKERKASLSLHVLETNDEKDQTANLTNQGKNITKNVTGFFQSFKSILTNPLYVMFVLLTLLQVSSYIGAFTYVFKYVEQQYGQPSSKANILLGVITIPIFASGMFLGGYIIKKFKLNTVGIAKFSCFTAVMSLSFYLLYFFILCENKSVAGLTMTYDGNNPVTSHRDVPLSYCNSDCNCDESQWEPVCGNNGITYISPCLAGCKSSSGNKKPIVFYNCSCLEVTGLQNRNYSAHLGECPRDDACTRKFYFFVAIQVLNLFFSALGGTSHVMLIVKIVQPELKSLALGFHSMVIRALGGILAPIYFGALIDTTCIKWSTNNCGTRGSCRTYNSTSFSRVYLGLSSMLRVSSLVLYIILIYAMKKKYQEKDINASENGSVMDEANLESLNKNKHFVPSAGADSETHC

[1] = inhibitor concentration 0.0732 uM
[2] = inhibitor concentration 0.2930 uM
[3] = inhibitor concentration 1.1719 uM
[4] = inhibitor concentration 4.6875 uM
[5] = inhibitor concentration 18.7500 uM
[6] = inhibitor concentration 300.0000 uM

COc1cccc2[nH]c(C(=O)N[C@@H](CC(C)C)C(=O)N[C@@H](C[C@@H]3CCNC3=O)C(=O)COP(=O)(O)O)cc12 [PF-07304814]
% Uptake Activity (OAT3; inhibitor 0.0732 uM): 90.43% and 87.63% and 87.56% | CPM (OAT3; inhibitor 0.0732 uM): 5496 CPM and 5333 CPM and 5329 CPM | CPM (OAT3; inhibitor 0.2930 uM): 6344 CPM and 6124 CPM and 6271 CPM | % Uptake Activity (OAT3; inhibitor 1.1719 uM): 95.24% and 92.22% and 99.27% | CPM (OAT3; inhibitor 1.1719 uM): 5775 CPM and 5600 CPM and 6009 CPM | % Uptake Activity (OAT3; inhibitor 4.6875 uM): 114.18% and 108.98% and 107.36% | CPM (OAT3; inhibitor 4.6875 uM): 6875 CPM and 6573 CPM and 6479 CPM | % Uptake Activity (OAT3; inhibitor 18.7500 uM): 117.49% and 111.56% and 110.48% | CPM (OAT3; inhibitor 18.7500 uM): 7067 CPM and 6723 CPM and 6660 CPM | % Uptake Activity (OAT3; inhibitor 300.0000 uM): 91.64% | CPM (OAT3; inhibitor 300.0000 uM): 5566 CPM and 5934 CPM and 5704 CPM | % Uptake Activity (OCT1; [1]): 107.03% and 99.34% and 105.72% | % Uptake Activity (OCT1; [2]): 114.31% | % Uptake Activity (OCT1; [3]): 97.68% and 94.70% | % Uptake Activity (OCT1; [4]): 106.96% | % Uptake Activity (OCT1; [5]): 94.56% and 92.76% and 89.50% | % Uptake Activity (OCT1; [6]): 76.55% and 79.04% and 87.08% | % BCRP Uptake Activity (BCRP; [1]): 77.5229% and 85.7155% and 80.6739% | % BCRP Uptake Activity (BCRP; [3]): 61.2007% and 79.4135% and 87.6061% | % BCRP Uptake Activity (BCRP; [4]): 91.3873% and 117.225% and 86.9759% | % BCRP Uptake Activity (BCRP; [5]): 86.9759% and 92.0175% | % BCRP Uptake Activity (BCRP; [6]): 32.6527% and 38.5136% and 39.6479%

COc1cccc2[nH]c(C(=O)N[C@@H](CC(C)C)C(=O)N[C@@H](C[C@@H]3CCNC3=O)C(=O)CO)cc12 [PF-00835231]
% Uptake Activity (OAT3; inhibitor 0.0732 uM): 89.07% and 88.76% | CPM (OAT3; inhibitor 0.0732 uM): 5417 CPM and 5399 CPM and 5694 CPM | % Uptake Activity (OAT3; inhibitor 0.2930 uM): 97.44% | CPM (OAT3; inhibitor 0.2930 uM): 6277 CPM and 5903 CPM and 6132 CPM | % Uptake Activity (OAT3; inhibitor 1.1719 uM): 94.53% and 89.93% | CPM (OAT3; inhibitor 1.1719 uM): 5734 CPM and 5467 CPM and 5478 CPM | % Uptake Activity (OAT3; inhibitor 4.6875 uM): 106.21% and 101.51% and 106.50% | CPM (OAT3; inhibitor 4.6875 uM): 6412 CPM and 6139 CPM and 6429 CPM | % Uptake Activity (OAT3; inhibitor 18.7500 uM): 107.64% and 108.48% | CPM (OAT3; inhibitor 18.7500 uM): 6311 CPM and 6495 CPM and 6544 CPM | % Uptake Activity (OAT3; inhibitor 300.0000 uM): 77.29% and 78.84% | CPM (OAT3; inhibitor 300.0000 uM): 4733 CPM and 5007 CPM and 4823 CPM | % Uptake Activity (OATP1B1): 2.3% and 1.8% and 2.6% | % Uptake Activity (OCT1; [1]): 106.96% | % Uptake Activity (OCT1; [2]): 105.99% and 111.95% and 107.52% | % Uptake Activity (OCT1; [3]): 95.32% | % Uptake Activity (OCT1; [4]): 99.34% and 96.29% | % Uptake Activity (OCT1; [5]): 62.28% and 65.95% and 66.02% | % Uptake Activity (OCT1; [6]): 14.55% and 14.34% and 14.96% | % BCRP Uptake Activity (BCRP; [1]): 87.6061% and 75.0021% | % BCRP Uptake Activity (BCRP; [4]): 70.5907% and 67.4397% and 66.8095% | % BCRP Uptake Activity (BCRP; [5]): 41.2864% and 39.0177% and 40.1521% | % BCRP Uptake Activity (BCRP; [6]): 1.13% and 1.25% and 2.277%

Values joined by “and” are separate entries in the source; they are usually repeats but may differ in a detail not shown here. Identical values can stand only once.
